Results as given in ChEMBL document CHEMBL4229443, “Activation studies with amines and amino acids of the α-carbonic anhydrase from the pathogenic protozoan Trypanosoma cruzi” (Bioorg Med Chem, 2018).

Experiments:
[1] = molecular target: T1, Carbonic anhydrase-like protein, putative (Trypanosoma cruzi (strain CL Brener)) (UniProt Q4CVY4); test: Activation of Trypanosoma cruzi CA preincubated for 15 mins followed by CO2 addition by stopped-flow assay
T1 sequence (whole entry): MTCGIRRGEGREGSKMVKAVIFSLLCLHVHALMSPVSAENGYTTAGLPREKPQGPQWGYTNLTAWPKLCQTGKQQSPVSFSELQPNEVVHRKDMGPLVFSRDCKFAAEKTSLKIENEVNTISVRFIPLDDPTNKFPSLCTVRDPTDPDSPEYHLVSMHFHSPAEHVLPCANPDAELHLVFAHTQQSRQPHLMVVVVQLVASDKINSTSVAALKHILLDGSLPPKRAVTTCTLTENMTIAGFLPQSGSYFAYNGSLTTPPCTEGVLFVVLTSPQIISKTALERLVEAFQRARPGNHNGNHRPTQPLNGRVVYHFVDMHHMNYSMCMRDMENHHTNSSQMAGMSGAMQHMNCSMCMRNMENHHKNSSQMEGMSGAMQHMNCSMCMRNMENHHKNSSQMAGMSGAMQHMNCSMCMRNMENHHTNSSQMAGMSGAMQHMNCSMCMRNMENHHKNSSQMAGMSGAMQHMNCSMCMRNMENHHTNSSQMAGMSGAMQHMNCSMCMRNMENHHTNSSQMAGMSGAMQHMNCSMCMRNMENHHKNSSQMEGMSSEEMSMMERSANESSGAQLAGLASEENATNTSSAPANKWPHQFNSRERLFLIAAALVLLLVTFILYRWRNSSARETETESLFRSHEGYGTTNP
How it was run: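 Recombinant TcCA pre-incubated 15 min at room temperature with activator (10 mM water stocks diluted down to 1 nM in assay buffer). Stopped-flow CO2 hydration (CO2 1.7–17 mM) in 10 mM Hepes pH 7.5 with 0.1 M Na2SO4, 25 °C, 10 s. Phenol red 0.2 mM read at 557 nm. Initial 5–10% of ≥6 traces used, uncatalyzed rate subtracted. KA fitted by competitive steady-state equation; mean of three.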

[2] = tested on: Leishmania chagasi; test: Activation of Leishmania donovani chagasi CA preincubated for 15 mins followed by CO2 addition by stopped-flow assay

Row | SMILES | KA [1] [µM] | KA [2] [µM]
1 | N[C@@H](Cc1ccccc1)C(=O)O | 12.1 | 9.16
2 | N[C@H](Cc1ccccc1)C(=O)O | 6.39 | 3.95
